Assay [1] addresses T1, androgen receptor (Homo sapiens (Human), UniProt P10275). Nature of the assay: Androgen receptor binding test. Particulars: reference 3H-testosterone, Hi5 cytosol; for pIC50: read-out: Androgen receptor IC50.
The next assay has as its target progesterone receptor (Homo sapiens (Human), UniProt P06401). Nature of the assay: Progesterone receptor binding test. Particulars: ratio of competition factors CF(PR) and CF(MR). The method, then: 1. Progesterone Receptor Binding Test:
Using cytosol from progesterone receptor-expressing insect cells (Hi5), competitive binding to the progesterone receptor was determined from the ability to displace ^3H-progesterone as reference substance from the receptor.

Sequences of proteins named here, by UniProt entry; tags and fusion partners are left off.
UniProt P10275, whole entry, species assumed: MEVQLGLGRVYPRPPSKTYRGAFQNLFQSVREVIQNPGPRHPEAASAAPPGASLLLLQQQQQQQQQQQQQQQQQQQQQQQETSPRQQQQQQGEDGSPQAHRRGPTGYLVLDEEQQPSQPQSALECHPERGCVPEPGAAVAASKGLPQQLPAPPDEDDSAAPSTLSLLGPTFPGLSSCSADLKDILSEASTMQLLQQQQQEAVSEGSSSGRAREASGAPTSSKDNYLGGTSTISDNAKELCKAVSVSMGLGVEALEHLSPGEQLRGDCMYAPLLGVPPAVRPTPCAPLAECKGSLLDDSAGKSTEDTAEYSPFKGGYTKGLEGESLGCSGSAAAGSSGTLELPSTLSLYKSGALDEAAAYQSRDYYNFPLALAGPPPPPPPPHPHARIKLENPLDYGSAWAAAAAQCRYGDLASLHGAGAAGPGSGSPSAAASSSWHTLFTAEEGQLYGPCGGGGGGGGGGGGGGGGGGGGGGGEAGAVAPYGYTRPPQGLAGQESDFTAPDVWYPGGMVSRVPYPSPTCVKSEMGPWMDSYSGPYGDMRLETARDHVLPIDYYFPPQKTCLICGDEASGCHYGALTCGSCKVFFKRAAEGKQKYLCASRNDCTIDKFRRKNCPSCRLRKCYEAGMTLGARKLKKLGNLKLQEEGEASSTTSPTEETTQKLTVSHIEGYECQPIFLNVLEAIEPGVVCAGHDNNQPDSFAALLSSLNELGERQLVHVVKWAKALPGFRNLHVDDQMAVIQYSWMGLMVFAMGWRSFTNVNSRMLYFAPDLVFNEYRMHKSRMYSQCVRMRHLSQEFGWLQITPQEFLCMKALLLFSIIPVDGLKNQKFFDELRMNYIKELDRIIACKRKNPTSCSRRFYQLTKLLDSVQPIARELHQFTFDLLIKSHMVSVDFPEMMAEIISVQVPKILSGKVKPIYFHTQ
UniProt P06401, whole entry, species assumed: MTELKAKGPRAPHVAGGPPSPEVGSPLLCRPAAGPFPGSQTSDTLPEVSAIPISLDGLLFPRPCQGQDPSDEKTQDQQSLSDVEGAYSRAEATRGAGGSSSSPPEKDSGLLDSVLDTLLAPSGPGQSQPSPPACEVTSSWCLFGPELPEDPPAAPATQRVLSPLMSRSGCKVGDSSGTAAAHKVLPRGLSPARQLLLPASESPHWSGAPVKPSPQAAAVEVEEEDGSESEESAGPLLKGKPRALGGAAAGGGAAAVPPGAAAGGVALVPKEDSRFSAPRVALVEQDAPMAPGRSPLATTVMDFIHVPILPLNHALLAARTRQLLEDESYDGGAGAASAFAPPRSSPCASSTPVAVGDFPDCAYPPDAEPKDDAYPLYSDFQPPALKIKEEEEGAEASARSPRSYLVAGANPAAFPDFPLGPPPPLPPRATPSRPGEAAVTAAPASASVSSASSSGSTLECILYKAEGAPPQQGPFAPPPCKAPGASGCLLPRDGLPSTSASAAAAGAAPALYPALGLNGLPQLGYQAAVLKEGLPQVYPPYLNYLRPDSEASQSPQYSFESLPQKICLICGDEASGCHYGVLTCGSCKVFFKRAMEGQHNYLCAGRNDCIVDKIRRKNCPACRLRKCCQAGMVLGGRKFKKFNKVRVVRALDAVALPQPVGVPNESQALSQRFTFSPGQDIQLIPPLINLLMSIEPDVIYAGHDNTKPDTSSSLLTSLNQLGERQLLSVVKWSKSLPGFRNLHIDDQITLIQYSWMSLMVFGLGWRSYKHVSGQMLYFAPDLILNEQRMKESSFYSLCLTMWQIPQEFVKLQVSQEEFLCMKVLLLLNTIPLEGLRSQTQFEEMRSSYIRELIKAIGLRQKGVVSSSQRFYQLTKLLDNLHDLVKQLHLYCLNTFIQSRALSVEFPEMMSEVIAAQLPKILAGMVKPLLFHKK

Assay [2] concerns the target T1, androgen receptor. Nature of the assay: Androgenic/antiandrogenic action by transactivation test (PC3 reporter cells). Type of assay: cell-based. Particulars: for pIC50: 0.05 nM R1881, read-out: Androgen receptor Antagonism IC50; for pEC50: read-out: Androgen receptor Agonism EC50. The method, then: 6. Determination of Androgenic/Antiandrogenic Action by Means of Transactivation Tests:
The androgenic/antiandrogenic action of the test substances was determined as for the transactivation tests described above.
The following modifications were made: In this case reporter cell lines were used (PC3 cells) that express the androgen receptor, and a reporter construct that contains luciferase under the control of a steroid hormone-responsive promoter.
For determination of the antiandrogenic efficacy, 0.05 nM R1881 was added to the cells, in order to achieve almost maximum stimulation of the reporter gene.

SMILES strings stand for the structures. pEC50, pIC50: −log10 of the molar value.

`C[C@]12CC[C@H]3[C@@H](C=CC4=CC(=O)CC[C@@H]43)[C@@H]1CC[C@@]21C=CCO1` (stereo in doubt) [Example 2, 17α-(1′-Propenyl)-17β-3′-oxidoestra-4,6-dien-3-one]: at androgen receptor [1], the negative-log IC50 (pIC50) (usually the IC50 on a negative log10 scale, so that one unit is a factor of ten) is 6.18 and the “Androgen receptor Competition factor” value worked out at 28.7. Moreover, the “CF PR/CF MR” value at progesterone receptor was 0.26. On androgen receptor [2], the pIC50 was 6.89 and the pEC50 (as a rule, −log10 of the EC50, conventionally taken in molar units) was 6.96.

Consider `C[C@]12CC[C@H]3[C@@H](CCC4=CC(=O)CC[C@@H]43)[C@@H]1CC1(CC1)[C@@]21C=CCO1` (stereo in doubt) [Example 6, 16,16-Ethylene-17α-(1′-propenyl)-17β-3′-oxidoestra-4-en-3-one], for which, on androgen receptor [1], the pIC50 is 6.85 and the “Androgen receptor Competition factor” value was determined as 15.7. Moreover, the “CF PR/CF MR” value at progesterone receptor came out at 0.15. At androgen receptor [2], the negative logarithm of the IC50 (pIC50) is 7.96 and the pEC50 was 8.17.

Consider `C[C@@H]1CC2=CC(=O)CC[C@@H]2[C@H]2CC[C@@]3(C)[C@@H](CC[C@@]34C=CCO4)[C@@H]21` [Example 3, 7α-Methyl-17α-(1′-propenyl)-17β-3′-oxidoestra-4-en-3-one], for which, on androgen receptor [1], the pIC50 is 7.35 and the “Androgen receptor Competition factor” value worked out at 2.0. Further, the “CF PR/CF MR” value at progesterone receptor is reported as 0.75. Also, on androgen receptor [2], the negative logarithm of the IC50 (pIC50) was 6.00 and the pEC50 is 8.64.

Take `C[C@]12CC[C@H]3[C@@H](CCC4=CC(=O)CC[C@@H]43)[C@@H]1CC[C@@]21C=CCO1` (stereo in doubt) [Example 1, 17α-(1′-Propenyl)-17β-3′-oxidoestra-4-en-3-one]: on androgen receptor [1], the pIC50 is 7.57 and the “Androgen receptor Competition factor” value was found to be 3.3. Also, the “CF PR/CF MR” value on progesterone receptor turned out to be 0.18. Also, at androgen receptor [2], the negative logarithm of the IC50 (pIC50) was 7.59 and the negative logarithm of the EC50 (pEC50) is 8.32.

Regarding `CC[C@]12CC[C@H]3[C@@H](C=CC4=CC(=O)CC[C@@H]43)[C@@H]1CC[C@@]21C=CCO1` (stereo in doubt) [Example 8, 18-Methyl-17α-(1′-propenyl)-17β-3′-oxidoestra-4,6-dien-3-one], on androgen receptor [1], the negative logarithm of the IC50 (pIC50) is 5.92 and the “Androgen receptor Competition factor” value is on record as 47.9. The “CF PR/CF MR” value at progesterone receptor was 1.48. Moreover, on androgen receptor [2], the pIC50 was 6.00 and the negative-log EC50 (pEC50) was 7.26.

As to `CC[C@]12CC[C@H]3[C@@H]([C@H](C4CC4)CC4=CC(=O)CC[C@@H]43)[C@@H]1CC[C@@]21C=CCO1` [Example 12, 7α-Cyclopropyl-18-methyl-17α-(1′-propenyl)-17β-3′-oxidoestra-4-en-3-one], on androgen receptor [1], the pIC50 was 6.72 and the “Androgen receptor Competition factor” value worked out at 6.0. Moreover, at progesterone receptor, the “CF PR/CF MR” value was found to be 4.26. At androgen receptor [2], the pIC50 is 6.00 and the pEC50 was 7.80.

These data come from patent publication US9034856B2, “17-(1′propenyl)-17-3′-oxidoestra-4-en-3-one derivative, use thereof, and medicament containing said derivative” (Bayer Intellectual Property GmbH, priority 2007, dated 2015).
